The values that follow come from patent publication EP0559893A1, “XANTHINE DERIVATIVE” (priority 1990, dated 1992).

Chains of the proteins cited; added tags and fusions are not shown.
UniProt P47745, whole entry: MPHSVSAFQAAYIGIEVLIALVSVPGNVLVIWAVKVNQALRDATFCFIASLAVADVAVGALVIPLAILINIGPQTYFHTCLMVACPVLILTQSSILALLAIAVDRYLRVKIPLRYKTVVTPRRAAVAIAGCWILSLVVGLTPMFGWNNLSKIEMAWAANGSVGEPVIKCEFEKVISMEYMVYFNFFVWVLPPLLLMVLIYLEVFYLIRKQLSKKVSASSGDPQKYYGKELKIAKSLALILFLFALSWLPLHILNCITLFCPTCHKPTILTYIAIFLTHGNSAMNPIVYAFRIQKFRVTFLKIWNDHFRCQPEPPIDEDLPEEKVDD

The experiment deals with Adenosine A₁ receptor (Cavia porcellus, UniProt P47745). The experiment in a line: Adenosine A1 receptor binding test (3H-CHA binding).

As to `CCCn1c(=O)c2nc(/C=C/c3cc(OC)c(OC)c(OC)c3)[nH]c2n(CCC)c1=O` [Compound 13, 1,3-Dipropyl-8-[(E)-3,4,5-trimethoxystyryl]xanthine], the affinity corresponds to a Ki of 1700 nM. For the same compound, where the note is “read-out: A1 Receptor Inhibition (%) 10^-4 M”, the inhibition (in general, the relative decrease from the control value, in per cent) at 100 µM was 57%. Also, the inhibition at 10 µM (read-out: A1 Receptor Inhibition (%) 10^-5 M) was 50%.
